# Earlier results as cited in patent publication US20170135979A1, “PDE-DELTA INHIBITOR FOR THE TREATMENT OF CANCER” (Macau University of Science and Technology, priority 2015, published 2017).
# Amino acid sequences for entries named in this document (tags omitted). A change or cut given only in a name is not applied to a line headed by its entry.
# UniProt O43924: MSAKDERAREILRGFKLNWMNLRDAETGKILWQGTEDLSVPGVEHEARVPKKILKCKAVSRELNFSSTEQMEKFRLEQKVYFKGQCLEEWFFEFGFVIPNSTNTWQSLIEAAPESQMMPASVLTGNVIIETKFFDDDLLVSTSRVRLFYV
# Target: K-RAS-PDEδ interaction (Homo sapiens, UniProt O43924)
# Conditions: cited from earlier work
structure (smiles),measurement,value
c1ccc(Cn2c(-c3ccc(OC[C@H](C4CCNCC4)n4c(-c5ccccc5)nc5ccccc54)cc3)nc3ccccc32)cc1 [Deltarasin],K-RAS-PDEδ interaction,inhibited
